The values that follow are results of earlier work, collected in patent publication US20070031570A1, “Hydrothermically processed compositions containing phytosterols” (Archer-Daniels-Midland Company, priority 2002, published 2007).

For the data set the following is noted: orally-administered, chronic administration.

Consider neomycin, for which the toxicity result was “toxic”.
